Test system: rats
Settings: oral, single dose

COc1cc(CN2CCN(C(=O)c3cc4ccccc4o3)CC2)cc(OC)c1OC.Cl [Working Example 7, 1-(2-benzofuranylcarbonyl)4-(3,4,5-trimethoxybenzyl)piperazine hydrochloride]
LD50 (estimated): ~1000 mg/kg
